Our source for the Kd values is PMC8555866 (Nature chemical biology, 2021).

Amino acid sequences for entries named in this document (tags omitted).
UniProt Q14145, whole entry: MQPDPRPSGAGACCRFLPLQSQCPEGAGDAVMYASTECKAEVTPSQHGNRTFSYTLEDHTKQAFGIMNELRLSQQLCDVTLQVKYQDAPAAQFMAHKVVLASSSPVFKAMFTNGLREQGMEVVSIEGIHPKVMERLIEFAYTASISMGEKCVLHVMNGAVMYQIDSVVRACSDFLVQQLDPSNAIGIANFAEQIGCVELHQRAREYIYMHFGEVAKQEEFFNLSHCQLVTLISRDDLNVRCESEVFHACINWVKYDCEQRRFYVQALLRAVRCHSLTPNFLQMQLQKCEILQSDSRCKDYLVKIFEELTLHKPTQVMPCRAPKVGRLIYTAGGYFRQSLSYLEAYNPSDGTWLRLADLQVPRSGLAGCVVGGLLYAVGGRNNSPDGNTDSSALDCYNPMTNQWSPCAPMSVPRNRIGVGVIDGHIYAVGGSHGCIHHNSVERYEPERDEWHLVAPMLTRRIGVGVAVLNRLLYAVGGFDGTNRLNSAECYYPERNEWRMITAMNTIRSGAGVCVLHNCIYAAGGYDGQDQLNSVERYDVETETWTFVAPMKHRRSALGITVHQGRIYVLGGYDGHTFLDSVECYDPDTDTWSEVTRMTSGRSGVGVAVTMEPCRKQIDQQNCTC

In the assay the target is Keap1 (6xHis/GST) (Homo sapiens, UniProt Q14145). The assay can be described thus: Keap1 tracer saturation binding with epitope-tagged Keap1 and Tb-Anti-6xHis. Conditions: read-out: Kd,app; 1 nM Keap1 (6xHis/GST), 0.5 nM Tb-Anti-6xHis.

As to `CC1(C)CC[C@]2(C(=O)NCCCOCCOCCOCCCNC(=S)Nc3ccc(-c4c5ccc(=O)cc-5oc5cc(O)ccc45)c(C(=O)O)c3)CC[C@]3(C)[C@H](C(=O)C=C4[C@@]5(C)C=C(C#N)C(=O)C(C)(C)[C@@H]5CC[C@]43C)[C@@H]2C1` [CDDO-FITC], the Kd stood at 6.8 ± 1.1 nM.
